Results on two substances are retold here after PMC10751915.

By UniProt entry, the sequences of proteins in these tests, tags left out.
UniProt P55899, whole entry, looked up, tested part not stated: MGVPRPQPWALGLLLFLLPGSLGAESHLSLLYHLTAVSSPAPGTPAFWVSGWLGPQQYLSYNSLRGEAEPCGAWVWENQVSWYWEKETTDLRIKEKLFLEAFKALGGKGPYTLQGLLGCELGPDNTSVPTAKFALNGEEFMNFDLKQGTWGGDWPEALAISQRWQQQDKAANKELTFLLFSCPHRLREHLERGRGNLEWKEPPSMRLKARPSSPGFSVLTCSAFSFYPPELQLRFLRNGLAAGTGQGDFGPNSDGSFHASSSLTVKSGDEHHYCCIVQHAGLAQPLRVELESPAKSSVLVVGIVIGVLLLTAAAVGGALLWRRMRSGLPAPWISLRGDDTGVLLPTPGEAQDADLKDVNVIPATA

For experiment [1], the target named is FcRn (UniProt P55899). The experiment can be described thus: BLI; Octet (ForteBio, Sartorius); pH 6.0; 1:1 global curve fitting. In general terms: BLI is a label-free optical method that tracks binding on a fibre tip over time.
For experiment [2], the target named is FcRn (UniProt P55899).
Experiment [3] deals with FcRn (UniProt P55899). The experiment can be described thus: AlphaScreen or HTRF; AlphaLISA Fc receptor competition binding kit for FcRn, AlphaLISA MES buffer, pH 6.0; antibody titrated. A general note: Bead proximity is the source of the signal in Alpha formats.
Experiment [4] deals with FcRn (UniProt P55899). Nature of the experiment: BLI; binding of KVA12.1 and KVA12123 to FcRn at pH 6.0 (Table S5; set-up not shown).

For orientation: Kd means the constant that tells how readily two partners part at equilibrium. A higher Kd goes with weaker binding. For orientation: koff means the first-order rate constant of dissociation. The low end stands for slow dissociation, the high end for fast dissociation. The term kon denotes a measure of how fast the partners come together. Consider KVA12.1 (WT, hIgG1) (antibody), for which, in experiment [1], the Kd amounted to 760 nM, the dissociation rate constant (koff) is 0.037 s⁻¹ and the kon was 47000 M⁻¹ s⁻¹. The initial serum half-life in female cynomolgus monkeys after a single i.v. dose of 30 or 100 mg/kg (FcRn of the animal) in experiment [2] is 103 h.
Turning to KVA12123 (YTE, hIgG1) (antibody), in experiment [1], the equilibrium dissociation constant (Kd) was found to be 84 nM, the koff was found to be 0.019 s⁻¹ and the on-rate constant (kon) worked out at 230000 M⁻¹ s⁻¹. This substance also gave a fold stronger binding than KVA12.1 in experiment [3] of over 5 fold. Further, the fold higher affinity than KVA12.1 in experiment [4] is 9 fold. In experiment [2], this substance showed an initial serum half-life in female cynomolgus monkeys after a single i.v. dose of 30 or 100 mg/kg (FcRn of the animal) of 165 h.
